# Antibody variant affinities, Ab-14 light chain, assay B

Target peptide (SARS-CoV-2 spike, HR2 region): PDVDLGDISGINAS

Ab-14 is the parent antibody, in scFv form: VH, then a 15-residue (Gly4Ser)3 linker, then VL. The heavy chain is unchanged in all variants.
VH: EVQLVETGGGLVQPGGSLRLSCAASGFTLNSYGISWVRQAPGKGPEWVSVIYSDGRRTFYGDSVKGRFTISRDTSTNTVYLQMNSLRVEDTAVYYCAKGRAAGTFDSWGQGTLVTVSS
VL: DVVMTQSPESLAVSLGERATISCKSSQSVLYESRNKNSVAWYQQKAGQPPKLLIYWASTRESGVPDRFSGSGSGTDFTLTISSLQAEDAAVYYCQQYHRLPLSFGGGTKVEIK

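The starting antibody came from a phage panning campaign against this peptide. This is the validation round: designs drawn from the data on random variants, tested in the same kind of assay. Several design methods are mixed in this list. Affinity was read by AlphaSeq, a pooled yeast mating assay with surface-displayed partners. Mating (16 h, 30 °C) was followed by selection of diploids and sequencing of their barcodes. Each replicate has its own calibration line, from reference interactions of the BCL2 family. Each pool was mated in six replicate cultures.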

Variants are written as CDR1, CDR2 and CDR3 of the light chain (limits as in the source). Parent: KSSQSVLYESRNKNSVA, WASTRES, QQYHRLPLS.
Variants here have more than six changes.
Values are log10 of the apparent Kd in nM; lower means stronger binding.
The mean shown is taken over the replicates in which the pair was detected.
"nd" marks a missing value. The strain was present, yet no cells mated with the target were sequenced in any replicate, which points to weak or no binding.
Empty control strains, which show no peptide, gave a signal in 4% of pairings with all light chain designs; the median was 2.64 and 95% of these signals were weaker than 1.59. No background was subtracted. The control count says in how many pairings with the empty strains this scFv gave a signal.
Of ten entries with the parent sequence, four were seen in most replicates (averages 0.34 to 2.37), three in one and three in none, so single entries are noisy.
The range of this assay differs from that of the first round, and the authors advise against merging the two.
The authors' rule: three or more of the six replicates give a measured affinity, fewer mean a poor binder.

Variant KISQSVLFWGHAINSVA | EMETREN | QQYDRLPLS gave 0.97 (6 of 6 replicates; controls 0 of 18). For KLGQSVAMTSRNKNNVA | DLNVRER | QQYHRLPLS, the assay gave -0.21 (6 of 6 replicates; controls 2 of 18). For HIDILNRGEYLKQDPIA | NADHREQ | QQYFHLPLA, the assay gave 0.83 (6 of 6 replicates; controls 1 of 18). With KLRQSTHIESFNKNNVA | EMTTREQ | QSYDRLPLS the result was 0.67 (6 of 6 replicates; controls 1 of 18). Variant KLDLNNGEMDKKGDNIA | EASTAGM | QHYWRLPLS showed 2.54 (4 of 6 replicates; controls 0 of 18). For KISQMSTIESITHNSVA | QTSTREE | QQYDRLPLS, the assay gave 0.14 (6 of 6 replicates; controls 0 of 18). Variant TISQSVMMTGLNRNSVA | QAEERIE | QQYHRLPLS gave 1.60 (6 of 6 replicates; controls 0 of 18). For HISQSFMSESVWRNNIA | HQSTREQ | QQYDRLPFS, the assay gave 0.18 (6 of 6 replicates; controls 0 of 18). Variant KLGQSVAMTSRNKNNVA | DLNERER | QQYYRLPLS showed -0.62 (6 of 6 replicates; controls 1 of 18).

With NLYQSMNFLGRVMNSIA | DAQTLPD | QQYHRLPLS the result was 0.72 (6 of 6 replicates; controls 0 of 18). With SLVQEKSVGDANMGNIA | AANQLSV | QQYNRLPLS the result was 1.91 (6 of 6 replicates; controls 0 of 18). Variant MISDMGLHDSRIQNSVA | NNSTREA | QQYERLPLS showed 1.93 (6 of 6 replicates; controls 1 of 18). Variant VLPDHELMLESQIHSIA | NEDKRME | QQYSRLPLM gave 0.78 (6 of 6 replicates; controls 0 of 18). Variant KLSQITGHLSTAKNNVA | EMVTREN | QQYNRLPLS showed 0.28 (6 of 6 replicates; controls 1 of 18). With KVSQSVMMLSRNKNSVA | DNSTSGP | QQYHRLPLS the result was 1.10 (6 of 6 replicates; controls 1 of 18). Variant MISQILNMGQFAINSVA | QASLRCN | QQYDRLPLM gave nd (0 of 6 replicates; controls 0 of 18). Variant KLSMVTNQEHKVKNSIA | EMVTREK | QQYDRLPLI gave 0.55 (6 of 6 replicates; controls 0 of 18). For KLSQSMLYEERNLNSVA | HASQRMS | QQYHRLPLS, the assay gave -0.42 (6 of 6 replicates; controls 0 of 18).

Variant KLTGIMRLESKNKSNIA | EVNERSE | QQYDRLPLS showed 0.71 (6 of 6 replicates; controls 5 of 18). Variant KLSMNQEGQLNKGQSVA | GASEVCI | QQFYRLPLV gave 1.62 (3 of 6 replicates; controls 1 of 18). Variant KVNGLMNIEQMNSKSVA | QSSTREN | QQYHRLPLS showed -0.02 (6 of 6 replicates; controls 0 of 18). With VLPDNLLMFESQYHSIA | EGVQRME | QQYERLPLT the result was 0.67 (6 of 6 replicates; controls 4 of 18). For HMSALTLMGSRTRNSVA | QMTTREN | QQYDRLPLA, the assay gave 0.52 (6 of 6 replicates; controls 2 of 18). Variant ILTGMLNHAGQQQHSIA | HGGIKIE | QQYNRLPLA gave 1.72 (6 of 6 replicates; controls 1 of 18). Variant NIRGVEFESAMMGNAVA | GMSLVMA | QQYFRLPLH gave 1.60 (3 of 6 replicates; controls 0 of 18). With KFSQKVLYESRAMNSVA | DASQRLS | QQYHRLPLS the result was 0.94 (6 of 6 replicates; controls 1 of 18). For NVGQSMDGEVRNKNSVA | HQSTRED | QHYHRLPLS, the assay gave 1.52 (6 of 6 replicates; controls 1 of 18).

Variant IVSQLMLWGMHAKNSIA | EASTRLN | QQYERLPLF showed 2.90 (4 of 6 replicates; controls 1 of 18). Variant KIGMTLNQLYEKANNVA | DLVAREN | QQYHRLPLS showed 0.69 (6 of 6 replicates; controls 1 of 18). Variant MISQVLNTLTKTGNNVA | DLAEREQ | QQYFRLPLS gave 1.31 (6 of 6 replicates; controls 1 of 18). For HMSMLTLQGQRHKNSVA | QMTTREN | QQYDHLPLS, the assay gave 1.15 (6 of 6 replicates; controls 1 of 18). For KLQQSWEYESRNKNNVA | MGSQREV | QQYHRLPLS, the assay gave -0.40 (6 of 6 replicates; controls 1 of 18). Variant KLSQITGHMSVSKNNVA | EMVTRVN | QQYARLPLS gave 0.98 (6 of 6 replicates; controls 1 of 18). With QFEFTEEEGYQYSNNIA | NGETRFS | QQYVKLPLV the result was 0.28 (6 of 6 replicates; controls 0 of 18). For KSSPSQEYEDRNFNSVA | HASTREE | QQYHRLPLS, the assay gave 0.22 (6 of 6 replicates; controls 1 of 18). For KLSQLFYKESKNKNNVA | EMTTRGS | QQYDRLPLS, the assay gave 1.62 (6 of 6 replicates; controls 2 of 18).

Variant KISMSINLTFQASNNVA | EMATREQ | QQYNRLPLS showed 0.85 (6 of 6 replicates; controls 3 of 18).

Excerpt, the final 6 entries:

CDR-L1	CDR-L2	CDR-L3	mean, log10 nM	replicates with signal	empty controls
KLQQSWEYESRNKNNVA	MGSQREV	QQYHRLPLS	-0.40	6/6	1/18
KLSQITGHMSVSKNNVA	EMVTRVN	QQYARLPLS	0.98	6/6	1/18
QFEFTEEEGYQYSNNIA	NGETRFS	QQYVKLPLV	0.28	6/6	0/18
KSSPSQEYEDRNFNSVA	HASTREE	QQYHRLPLS	0.22	6/6	1/18
KLSQLFYKESKNKNNVA	EMTTRGS	QQYDRLPLS	1.62	6/6	2/18
KISMSINLTFQASNNVA	EMATREQ	QQYNRLPLS	0.85	6/6	3/18

Data: MIT Lincoln Laboratory AlphaSeq set, Li et al. 2023, doi:10.1038/s41467-023-39022-2, as distributed in FLAb.